Several values for one entry are separate records, joined by “and”; a condition that tells them apart may be missing. Identical values can stand only once. The entries are a selection whose mix differs from that of the whole data set. Some tests of the compounds listed are not included; inactive here does not mean inactive elsewhere. Activity calls are given as the source filed them. Rule as the data show it: active = activation above about 50%; inconclusive = mostly about 30% to 49%; inactive = weaker than that.
target: Mucolipin-1 (Homo sapiens) (UniProt Q9GZU1); assay: qHTS for Agonists of the Human Mucolipin Transient Receptor Potential 1 (TRPML1); conditions: TRPML1-expressing cells, Ca2+ dye fluorescence, FDSS; hits give high values; also: 0% is about no effect
Source text: Mutations of human Mucolipin transient receptor potential 1 (TRPML1) cause type IV mucolipidosis (ML4), a devastating neurodegenerative disease in young children. […] Currently, there is no treatment for ML4. […] Under physiological conditions, TRPMLs regulate membrane trafficking by transducing information about PI(3,5)P2 levels into changes in juxtaorganellar Ca2+, thereby triggering membrane fusion/fission events in the late endocytic pathways (endolysosomal trafficking). In addition, TRPML1 mediates release of Fe2+ from late endosomes and lysosomes, which is essential for cellular iron metabolism. Thus, impaired ion (Ca2+ and Fe2+) homeostasis underlies lysosomal dysfunction and ML4 phenotypes. In ML4 cells, the problem is twofold. First, defective Ca2+-dependent membrane trafficking due to TRPML1-deficiency causes accumulation of lipids and other bio-materials in the lysosome. The second strike comes from the lysosomal iron overload (due to impairment of TRPML1's Fe2+ conductivity), which converts the accumulated materials into the nondegradable (resistant to lysosomal degradation) lipofuscin (also called aging pigment) in the lysosome. Lipofuscin accumulation dramatically compromises the functions of lysosomes.
Niemann-Pick type C (NPC) disease is another lysosome storage disease (LSD) with severe neurodegeneration during the childhood. Currently, there is no cure for NPC. […] Thus, TRPML1 is likely to be an essential regulator of lysosome ion homeostasis. We specifically hypothesize that stimulating TRPML1's Fe2+/Ca2+ channel activity in the lysosome using synthetic agonists can alleviate neurodegeneration associated with ML4 or NPC.
To this end, a high throughput screen was developed in a miniaturized format to screen against the Molecular Libraries Small Molecule Repository (MLSMR) to find small molecules that act either as inhibitors or agonist against the TRPML1 channel.
NIH Chemical Genomics Center [NCGC]
NIH Molecular Libraries Probe Centers Network [MLPCN]
Assay Submitter (PI): Haoxing Xu, University of Michigan Ann Arbor
TRPML1-DL cells are dissociated from flasks, counted and, brought up to a density of 500,000 cells per mL of media containing a 1X Tet inducer. Using a Multidrop Combi, 3uL of this cell solution is dispensed to each well of a 1536 TC treated, black, clear bottom hi base plate for a final cell density of 1,500 cells per well. The assay plates are incubated overnight (approximately 16 hours) at 37 degrees C and 5% CO2. Using a Multidrop Combi, 2uL of ABD Ca8 no wash dye plus quencher is added to each well. The assay plates incubate at room temperature in the dark for 45-90 minutes. The assay plate is read on the FDSS using the following protocol: 10 second baseline read, 23nL of compounds and controls are added using 1536 pintool, agonist read for 110 seconds, 1 uL EC80 addition (4uM final 54-4 diluted in media), antagonist read for 110 seconds.

Protein sequences, listed by entry. Tags and fused reporters are not part of them.
UniProt Q9GZU1, whole entry: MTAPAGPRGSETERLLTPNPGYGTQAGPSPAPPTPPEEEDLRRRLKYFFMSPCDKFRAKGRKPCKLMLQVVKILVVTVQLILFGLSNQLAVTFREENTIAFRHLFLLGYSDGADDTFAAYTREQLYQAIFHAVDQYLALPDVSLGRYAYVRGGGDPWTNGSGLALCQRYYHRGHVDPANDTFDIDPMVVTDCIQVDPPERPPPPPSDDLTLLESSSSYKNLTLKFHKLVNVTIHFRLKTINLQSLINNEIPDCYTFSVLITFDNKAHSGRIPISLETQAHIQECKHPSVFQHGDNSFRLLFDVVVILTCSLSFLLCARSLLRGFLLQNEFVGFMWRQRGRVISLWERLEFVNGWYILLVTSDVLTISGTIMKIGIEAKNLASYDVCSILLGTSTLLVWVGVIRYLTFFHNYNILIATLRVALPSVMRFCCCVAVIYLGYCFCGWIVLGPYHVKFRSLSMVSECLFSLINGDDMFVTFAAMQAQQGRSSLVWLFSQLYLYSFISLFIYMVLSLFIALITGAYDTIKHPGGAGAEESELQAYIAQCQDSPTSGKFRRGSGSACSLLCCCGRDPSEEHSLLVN

SMILES	activation
COc1cccc(C(=O)NCC2(N3CCCCC3)CCCCC2)c1	inactive: -0.546%
COc1ccc(Cl)cc1C(=O)NCC1(N(C)C)CCCCC1	inactive: -1.27%
COc1ccc(C(=O)NCC2(N(C)C)CCCCC2)cc1Cl	inactive: -0.542%
O=C(NCC1(N2CCCCC2)CCCCC1)c1cccc(Cl)c1	inactive: 2.62%
O=C(CBr)c1ccc(Cl)cc1	inactive: -0.634%
CN(C)C1(CNC(=O)c2ccc(Br)cc2)CCCCC1	inactive: 0.0889%
COc1cc(C(=O)NCC2(N(C)C)CCCCC2)c([N+](=O)[O-])cc1OC	inactive: 0.788%
C=C(C)C#CC(O)(C(=O)OC1CCN(C)CC1)c1ccccc1 (stereo unspecified)	inactive: -0.0355%
Cc1cccc(C(=O)NCC2(N(C)C)CCCCC2)c1	inactive: -0.693%
COc1cc(C(=O)NCC2(N(C)C)CCCCC2)cc(OC)c1OC	inactive: -0.852%
COc1ccc(Br)c(C(=O)NCC2(N3CCCCC3)CCCCC2)c1	inactive: 1.96%
CC(C)Oc1ccc(C(=O)NCC2(N(C)C)CCCCC2)cc1	inactive: 0.934% and inactive: -0.286%
O=C(OCCN1CCCC1)C(O)(c1ccccc1)c1ccccc1	inactive: 0.641%
CN(C)c1cccc(C(=O)NCC2(N(C)C)CCCCC2)c1	inactive: -0.759%
COc1cccc(C(=O)NCC2(N3CCOCC3)CCCCC2)c1	inactive: 0.711%
O=C(OC1CN2CCC1CC2)C(CO)(c1ccccc1)c1ccccc1 (stereo unspecified)	inactive: -0.103%
CC(C)COc1ccc(C(=O)NCC2(N(C)C)CCCCC2)cc1	inactive: -0.0301%
CN(C)C1(CNC(=O)c2cccc(Cl)c2)CCCCC1	inactive: 0.247%

SMILES	activation
CCN(CC)CC(C)C(C)OC(=O)C(O)(c1ccccc1)c1ccccc1 (stereo unspecified)	inactive: 0.74%
CC(C)N1C(=O)CC2(CCN(CCOC(=O)C(O)(c3ccccc3)c3ccccc3)CC2)C1=O	inactive: -0.654%
Cc1ccc(C(=O)NCC2(N3CCCCC3)CCCCC2)cc1	inactive: 0.45%
CN(C)C1(CNC(=O)c2ccccc2F)CCCCC1	inactive: 1.02%
O=C(NCC1(N2CCCCC2)CCCCC1)c1cc([N+](=O)[O-])ccc1Cl	inactive: 0.328%
CN1[C@@H]2CC[C@H]1CC(OC(=O)C(O)(c1ccccc1)c1ccccc1)C2 (stereo partly specified)	inactive: 0.406%
C=CCN1CCN(CCOC(=O)C(O)(c2ccccc2)c2ccccc2)CC1	inactive: 3.03%
O=C(NCC1(N2CCCCC2)CCCCC1)c1cc(F)c(F)cc1Cl	inactive: -0.15%
COc1ccc(C(=O)NCC2(N(C)C)CCCCC2)cc1	inactive: 2.07%
CCOc1cccc(C(=O)NCC2(N(C)C)CCCCC2)c1	inactive: 0.309%
CCN1CCCC(OC(=O)C2(O)c3ccccc3C=Cc3ccccc32)C1 (stereo unspecified)	inactive: -0.0359%
Cc1cc(C(=O)NCC2(N3CCCCC3)CCCCC2)ccc1[N+](=O)[O-]	inactive: 0.817%
O=C(NCC1(N2CCCCC2)CCCCC1)c1cccc(Br)c1	inactive: 1.63%
Cc1ccccc1C(=O)NCC1(N2CCCCC2)CCCCC1	inactive: 0.816%
CN(C)C1(CNC(=O)c2ccccc2[N+](=O)[O-])CCCCC1	inactive: 1.42%
CN(C)c1ccc(C(=O)NCC2(N(C)C)CCCCC2)cc1	inactive: -0.613%
CN(C)C1CCCC1OC(=O)C(O)(c1ccccc1)c1ccccc1 (stereo unspecified)	inactive: 0.238%
CCCCOc1ccccc1C(=O)NCC1(N(C)C)CCCCC1	inactive: 1.08%
